Experiments:
UCHL1 [1] = target: T1, UCHL1 (Homo sapiens, UniProt P09936); assay: Ub-AMC assay with recombinant UCHL1; format: biochemical; conditions: UCHL1 versus UCHL3, UCHL5, USP2 catalytic core, USP15
T1 sequence (P09936 1-223): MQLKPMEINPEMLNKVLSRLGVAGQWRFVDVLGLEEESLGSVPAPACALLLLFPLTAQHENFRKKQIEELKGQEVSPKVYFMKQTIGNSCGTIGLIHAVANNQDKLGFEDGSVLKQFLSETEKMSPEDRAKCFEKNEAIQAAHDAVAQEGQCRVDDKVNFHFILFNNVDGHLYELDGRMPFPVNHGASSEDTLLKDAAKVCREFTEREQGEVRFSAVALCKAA

UCHL1 [2] = target: T1, UCHL1; assay: Rapid dilution reversibility assay; format: biochemical; conditions: incubated at ten times IC50, diluted 100-fold; normalized to DMSO

`CO[C@H]1/C=C/O[C@@]2(C)Oc3c(C)c(O)c4c(O)c(c(/C=N/N5CCN(C)CC5)c(O)c4c3C2=O)NC(=O)/C(C)=C\C=C\[C@H](C)[C@H](O)[C@@H](C)[C@@H](O)[C@@H](C)[C@H](OC(C)=O)[C@@H]1C` [rifampicin, reference compound] was tested, and the “selectivity among UCHs and USPs tested” value (UCHL1 [1]) was “more promiscuous inhibitors” and the “recovered UCHL1 activity after rapid dilution” value (UCHL1 [2]) was > 80%.

From paper PMC5947317 (ACS chemical biology, 2017)
